The values below are quoted from earlier work in patent US5500807A, “Selection method for pharmacologically active compounds” (The Regents of the University of California, priority 1992, dated 1996).

The conditions of the series: in vivo; cited from earlier work.

As to `CCCCc1oc2ccccc2c1C(=O)c1cc(I)c(OCCN(CC)CC)c(I)c1` [amiodarone, 2-butyl-3-[3,5-diiodo-4-(β-diethylaminoethoxy)-benzoyl]benzofuran], the “tissue accumulation, in words” value is on record as “accumulates extensively in tissues”.
